Source: patent US7696149B2, “Pharmaceutical administration form for peptides, process for its preparation, and use” (AEterna Zentaris GmbH, priority 2000, dated 2010)

Experiments:
[1] = Rat animal experiment: cetrorelix residual content in the muscle 168 h after injection; format: in vivo
Experimental: After reconstitution of these lyophilizates, the solutions (2.5 mg/ml of cetrorelix) are investgated in the following tests for aggregate formation and release behaviour: • Polarization microscopy (pol. mic.): days without aggregation. • Filterability in %: • Cetrorelix solutions are prepared according to a standardized procedure and filtered through 0.22 μm or 0.45 μm filters by means of centrifugation. The concentration of cetrorelix in the filtrate is determined by HPLC and indicated as a % value, based on the starting concentration before filtration (filterability in %). • in-vitro release form (RRS, release in Ringer's solution): • % released after 1 h and after 6 h. • The in-vitro release behaviour is determined at 37° C. in a flow procedure using Ringer's solution as medium. The concentration measurement is carried out by HPLC. Cetrorelix samples, corresponding to 10 mg of cetrorelix base, are weighed into the flow cell, mixed with 4 ml of water and stirred for 10 min.
(§1) In the further rat muscle experiments shown in Table 9, in addition to the residual content in the muscle, the cetrorelix content in the plasma was additionally determined.

[2] = Rat muscle experiment: cetrorelix content in the plasma; format: in vivo
Text: as §1

[3] = dose 1.5 mg/kg, inj. soln 3 mg/ml
[4] = dose 3.0 mg/kg, inj. soln 15 mg/ml

Lactate
Cetrorelix content in the muscle (168 h), % of the dose [1, 3]: 30.7 % of the dose
Cetrorelix content in the muscle (168 h), % of the dose [1, 4]: 33.2 % of the dose
Cetrorelix content in the plasma, % of the dose [2, 3]: 67.1 % of the dose
Cetrorelix content in the plasma, % of the dose [2, 4]: 72.1 % of the dose
